# Test results from patent US9073858B2, “Methods of targeted drug development” (priority 2010, dated 2015).
# Like-named read-outs stand apart in the source and are kept apart here.
# What was measured:
# Assay type in all cases: cell-based
# [1] = test system: DNA fragmentation in A549 cells; test: DNA Fragmentation Assay (Cell Death Detection ELISA); details: Homo sapiens; for Emax at 1 µM: A549, read-out: % Increase Relative to Staurosporin
# HT-29 cells = test: HT-29 Cell Proliferation Assay (MTT); details: Homo sapiens, HT-29, 72 h, read-out: IC50 Value (μM) HT-29 Cells
# Procedure: (§1) Cell proliferation is determined using the MTT assay. The MTT cell proliferation assay is a colorimetric assay system which measures the reduction of a tetrazolium component (MTT) into an insoluble formazan product by the mitochondria of viable cells. After incubation of the cells with the MTT reagent, DMSO is added to solubilize the colored crystals and the samples read at a wavelength of 560 nm. The amount of color produced is directly proportional to the number of viable cells.
# 3-(4,5-Dimethylthiazol-2-yl)-2,5-diphenyltetrazolium Bromide (MTT) dye (Aesar, cat no. L11939) was prepared at 5 mg/ml in PBS. […] Plates were read on the PolarStar plate reader at 560 nm. Percent (%) inhibition was calculated as 100%−(OD560 nm experimental-blank)×100%/OD560 nm control-blank. […] IC50 values were calculated in GraphPad Prism using non-linear regression curve fitting. […]
# Briefly, compounds are added to cells plated in 96-well plates. […] The effect of the compounds on cell proliferation is analyzed using GraphPad Prism. […]
# For the HT-29 cell proliferation assay, on day 1, HT-29 cells are seeded at 3,000 cells/well in 100 μl media containing 10% FBS, 1× Pen-Strep, and 1× L-Glutamine in 96 well, tissue culture-treated plates. […] On day 5, plates were analyzed for cell growth using the MTT assay.
# H1975 cells = test: H1975 Cell Proliferation Assay (MTT); details: Homo sapiens, NCI-H1975, 72 h, read-out: IC50 Value (μM) H1975 Cells
# Procedure: as §1
# 3-(4,5-Dimethylthiazol-2-yl)-2,5-diphenyltetrazolium Bromide (MTT) dye (Aesar, cat no. L11939) was prepared at 5 mg/ml in PBS. To each well, 20 μl of MTT solution was added to existing media and mixed thoroughly with 5 mins of gentle shaking at room temperature. Plates were incubated at 37° C., 5% CO2 for approximately 2 hrs. After 2-3 hrs incubation, media was aspirated out and plates were patted dry. […] Plates were read on the PolarStar plate reader at 560 nm. Percent (%) inhibition was calculated as 100%−(OD560 nm experimental-blank)×100%/OD560 nm control-blank. […] IC50 values were calculated in GraphPad Prism using non-linear regression curve fitting. […]
# Briefly, compounds are added to cells plated in 96-well plates. […] The effect of the compounds on cell proliferation is analyzed using GraphPad Prism.
# A549 cells = test: A549 Cell Proliferation Assay (MTT); details: Homo sapiens
# Procedure: Cell proliferation is determined using the MTT assay. The MTT cell proliferation assay is a colorimetric assay system which measures the reduction of a tetrazolium component (MTT) into an insoluble formazan product by the mitochondria of viable cells. After incubation of the cells with the MTT reagent, DMSO is added to solubilize the colored crystals and the samples read at a wavelength of 560 nm. The amount of color produced is directly proportional to the number of viable cells. […] L11939) was prepared at 5 mg/ml in PBS. […] Plates were read on the PolarStar plate reader at 560 nm. […] IC50 values were calculated in GraphPad Prism using non-linear regression curve fitting. All statistical analyses was done either in GraphPad Prism or Microsoft Excel. […] Briefly, compounds are added to cells plated in 96-well plates. The cells are allowed to grow for 72 hours before MTT treatment. The effect of the compounds on cell proliferation is analyzed using GraphPad Prism. A549 cells are a non-small cell lung cancer cell line that have wild type EGFR and p53 but have point mutations in KRAS gene which transform it into an oncogene. […] SH30071.03, lot no. ATB31500), 1% Pen Strep (Gibco, cat no. […] On day 2, working solutions of compounds at 200× were prepared. […] Plates were incubated for 72 hours before analyzing them with MTT (as described above).
# [2] = A549, 72 h, read-out: IC50 Value (μM) A549 Cells
SMILES,IC50 (H1975 cells) [µM],IC50 (A549 cells; [2]) [µM],Emax at 1 µM [1] [%],other results
Cc1nc(NC(c2ccc(Cl)cc2)c2ccc3cccnc3c2O)ccc1Cl (stereo not drawn) [AD4-13161],,,,"activation at 10 µM ([1]; A549, 24 h, read-out: % Increase over Background): 678%"
Cc1nc(NC(c2ccc(Cl)c(Cl)c2)c2ccc3cccnc3c2O)c(Cl)cc1Cl (stereo not drawn) [AD4-13202],0.72,0.09,,"IC50 (HT-29 cells): 2.3 µM; IC50 (A549 cells; A549, read-out: IC50, cell proliferation in A549 or H1975 cells): ≤ 0.1 µM"
Oc1c(C(Nc2ccc(Cl)cn2)c2ccc(C(F)(F)F)cc2)ccc2cccnc12 (stereo not drawn) [AD4-13053],0.18,0.18,,
Cc1cc(Cl)cnc1NC(c1cccc(Cl)c1Cl)c1ccc2cccnc2c1O (stereo not drawn) [AD4-13147],,,49,
Oc1c(C(Nc2cc(Cl)c(Cl)cn2)c2ccc(Cl)cc2Cl)ccc2cccnc12 (stereo not drawn) [AD4-13178],,,48,
